Experimental findings from ChEMBL document CHEMBL3132817 (Medchemcomm, 2013) are described below.

Where only a bound is given, the exact number is not on record here.

The test has as its system Bacillus subtilis. In words: Antibacterial activity against Bacillus subtilis assessed as complete growth inhibition after 24 hrs by standard microdilution assay. In general terms: Broth dilution looks for growth in wells or tubes with falling amounts of substance.

As for `O=C(O)c1ccc(OCc2ccccc2)cc1`, the MIC – broadly, the least concentration at which growth counts as inhibited – was greater than 400 µM.
